## Yeast mating assay B: variants of the scFv Ab-14

From the AlphaSeq antibody data of Li et al. 2023 (doi:10.1038/s41467-023-39022-2), copy in the FLAb collection.

All variants were tested on one target, the spike HR2 peptide PDVDLGDISGINAS (SARS-CoV-2).

The variants keep the heavy chain, the linker and the frameworks of Ab-14 (scFv order VH, a 15-residue (Gly4Ser)3 linker, VL).
VH: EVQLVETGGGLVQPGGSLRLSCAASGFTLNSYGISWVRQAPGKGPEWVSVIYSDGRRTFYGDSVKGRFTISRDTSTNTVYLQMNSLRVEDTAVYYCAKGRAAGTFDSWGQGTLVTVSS
VL: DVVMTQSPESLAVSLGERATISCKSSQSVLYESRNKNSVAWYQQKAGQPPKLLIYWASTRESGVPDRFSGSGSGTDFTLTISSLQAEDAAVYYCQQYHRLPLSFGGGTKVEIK

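The parent was found by panning a naive human phage display library on the peptide. Designed CDR sequences, proposed from the first random library and measured here. Group labels follow the data file (Ctrl: baseline library sampled from a position-specific scoring matrix, with some repeated check sequences; Rand: our label for a block that the file lists under HC and that is probably the random mutants of the ten best first-round binders; En: ensemble of fine-tuned language models; GP: Gaussian process model; HC: hill climbing; Gen: genetic algorithm; Gibbs: Gibbs sampling; a sequence that several methods proposed may carry one label only). AlphaSeq pools MATa yeast showing the antibodies with MATalpha yeast showing the peptide. Binding brings cells together so that they mate, and sequencing counts the barcode pairs among the diploids. Read counts were normalised to the haploid input and turned into Kd by a linear fit to BCL2-family pairs of known affinity, for each replicate. There are six technical replicates.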

The parent's light chain CDRs are KSSQSVLYESRNKNSVA, WASTRES, QQYHRLPLS; each variant's own CDRs replace them letter for letter.
Numbers give log10(Kd / nM), so 0 is 1 nM and 3 is 1 µM. Smaller is tighter.
The mean shown is taken over the replicates in which the pair was detected.
"no signal" marks a missing value. The strain was present, yet no cells mated with the target were sequenced in any replicate, which points to weak or no binding.
Entries are sorted by rising average, undetected variants last.
The authors averaged sequences with at least three values out of six and counted those with two or fewer as poor binders.
Empty control strains, which show no peptide, gave a signal in 4% of pairings with all light chain designs; the median was 2.64 and 95% of these signals were weaker than 1.59. No background was subtracted. The control count says in how many pairings with the empty strains this scFv gave a signal.
The range of this assay differs from that of the first round, and the authors advise against merging the two.

| # | CDR-L1 | CDR-L2 | CDR-L3 | group | mean, log10 nM | replicates with signal | signal with controls |
|---|---|---|---|---|---|---|---|
| 1 | KLSNSFLYESRQKNSVA | EASQREM | QQYHRLPLS | GP_Gibbs | -0.27 | 6 of 6 | 1 of 18 |
| 2 | KVSPSWLYESRNKNSVA | NASQRES | QQYHRLPLS | GP_Gen | -0.23 | 6 of 6 | 2 of 18 |
| 3 | KLSQSVLYESRNKNSVA | QASTPES | QQYHRLPLS | Ctrl | -0.18 | 6 of 6 | 2 of 18 |
| 4 | IVSQLMLWGLHAKNSIA | EAVTRYN | QQYDRLPLF | En_Gen | -0.17 | 6 of 6 | 0 of 18 |
| 5 | KLSQSVLYESGTKNSVA | NASTRES | QQYHRLPLS | GP_HC | 0.03 | 6 of 6 | 2 of 18 |
| 6 | MMSQVWGMGQRHINNVA | QTSTRED | QQYDRLPLI | En_Gen | 0.04 | 6 of 6 | 0 of 18 |
| 7 | TLTQVQGMMSHNKNSVA | DLSTRGS | QQYHRLPLS | En_HC | 0.20 | 6 of 6 | 0 of 18 |
| 8 | KLSQSHLYESRNKNSVA | EASTREV | QQYHRLPLS | GP_Gen | 0.22 | 6 of 6 | 1 of 18 |
| 9 | LLKGMVEGQLYRQNAIA | NAEERDR | QQYNHLPLS | En_Gibbs | 0.37 | 6 of 6 | 2 of 18 |
| 10 | KVSQAVNYLSRVMNSVA | DNSTRGS | QQYFRLPLS | En_HC | 0.40 | 6 of 6 | 1 of 18 |
| 11 | KMSQSMPYEQRAKNSVA | NASQRES | QQYHRLPLS | GP_Gibbs | 0.42 | 6 of 6 | 4 of 18 |
| 12 | KLQQSVLYESRNKNSVA | HASTRES | QDYHRLPLS | GP_Gen | 0.42 | 6 of 6 | 1 of 18 |
| 13 | KISGMSTIESITHNSVA | QTSTRES | QQYDRLPLS | En_HC | 0.42 | 6 of 6 | 1 of 18 |
| 14 | HVSSMLMADGGIINSVA | GNKLLER | QQYMRLPLS | En_Gibbs | 0.44 | 6 of 6 | 0 of 18 |
| 15 | KASISVLFESRNKNSVA | DASTRSS | QQYHRLPLS | GP_HC | 0.52 | 6 of 6 | 2 of 18 |
| 16 | KVSQSVPYEERNKNSVA | EASTRES | QQYHRLPLS | GP_Gen | 0.57 | 6 of 6 | 0 of 18 |
| 17 | KLYISTMLESHNKNSIA | DLSTRGN | QQYHRLPLS | En_HC | 0.58 | 6 of 6 | 0 of 18 |
| 18 | KIGATLNTLYEKADNVA | DLVEREN | QQYHRLPLS | En_Gen | 0.59 | 6 of 6 | 0 of 18 |
| 19 | KLQQSWLYESRNKNSVA | NASTRMS | QQYHRLPLS | GP_Gen | 0.59 | 6 of 6 | 0 of 18 |
| 20 | MVNNIMDHLSKQTNNVA | ETVTREE | QQYDRLPLS | En_Gen | 0.61 | 6 of 6 | 0 of 18 |
| 21 | KLSQSVLAESRNKKSVA | TASTRES | QQYHSLPLS | Ctrl | 0.63 | 6 of 6 | 1 of 18 |
| 22 | KISQSILFMSGNLNAIA | QMEMREE | QQYHRLPLS | En_HC | 0.81 | 6 of 6 | 1 of 18 |
| 23 | LSSQSVQYDSRNKNSVA | AASTRES | QQYGRLPLS | Ctrl | 0.83 | 6 of 6 | 0 of 18 |
| 24 | KSECSEPYDSPNSNSVA | NASQRER | QQYHRLPLS | GP_Gibbs | 0.88 | 6 of 6 | 0 of 18 |
| 25 | KVSQYVLYESRNKNSVA | WASTRES | QQYHRLPLS | Ctrl | 0.89 | 6 of 6 | 1 of 18 |
| 26 | TLYGLSVSMSKNKNSVA | EMTTREK | QQYDRLPLF | En_Gen | 0.93 | 5 of 6 | 0 of 18 |
| 27 | TISMSMNWLTFNKNSIA | EENTRED | QQYDRLPLS | En_HC | 1.21 | 1 of 6 | 0 of 18 |
| 28 | MISMEEAPASQNASSIA | QGGTRAE | QQYNRLPLC | En_Gibbs | 1.32 | 6 of 6 | 0 of 18 |
| 29 | KLSQYVGGETRNKSSLA | DNNTRED | QQYERLPLS | En_HC | 1.36 | 6 of 6 | 0 of 18 |
| 30 | KSLISVLYESNNKNSVA | HASTRED | QQYHRLPLS | GP_HC | 1.46 | 6 of 6 | 0 of 18 |
| 31 | HISIKLPGNWYMMDSVA | HSELRAE | QQYDRLPLG | En_Gibbs | 1.53 | 6 of 6 | 2 of 18 |
| 32 | MINMEIGIEDRKWQAVA | SATVRAS | QQYGRLPFS | En_Gibbs | 1.57 | 5 of 6 | 0 of 18 |
| 33 | KSSQSVLYDSRKKNSVA | WASTRES | QDYHRLPLS | Ctrl | 1.92 | 3 of 6 | 0 of 18 |
| 34 | KSSPSVLYESFNKNFVA | WASTRES | QQYHRLPLS | Ctrl | 2.00 | 6 of 6 | 0 of 18 |
| 35 | KSIQSMLYESRNKNSVA | WASTRES | QQYSRLPLS | Ctrl | 2.23 | 5 of 6 | 0 of 18 |
| 36 | TISGMTNSAASKHNSVA | NVTMRPS | QQYHRLPLS | En_Gen | 2.24 | 6 of 6 | 2 of 18 |
| 37 | KSSQSVLYESRNKNSVA | WASTRES | QPYHRLPLS | Ctrl | 2.33 | 1 of 6 | 0 of 18 |
| 38 | KLKELFAMWARAQGNVA | DATERCT | QQYSRLPIT | En_Gibbs | 2.63 | 5 of 6 | 0 of 18 |
| 39 | NISLFIPEQKEWDANIA | GATLKPT | QDYARLPLS | En_Gibbs | 3.91 | 1 of 6 | 0 of 18 |
| 40 | KQSQSVLYESRNKNSVA | WASTRES | QQYHRTPLS | Ctrl | no signal | 0 of 6 | 0 of 18 |
| 41 | IVSQLMLWGLHAKNSIA | EAELRLN | QQYDRLPLF | En_Gen | no signal | 0 of 6 | 0 of 18 |
| 42 | KISQSVLYELRNANAVA | QASTREW | QQYMRLPLF | Ctrl | no signal | 0 of 6 | 0 of 18 |
| 43 | KLRQSTLYESRNKSSVA | WASTNES | QQYHRLPGS | Rand | no signal | 0 of 6 | 1 of 18 |
| 44 | KSSQSVLGESRNKNSVA | KASTRES | QTCHRLPLS | Ctrl | no signal | 0 of 6 | 0 of 18 |
| 45 | RSSQSVLYESRNKNSVA | GASTRES | QQYHRNPLS | Ctrl | no signal | 0 of 6 | 1 of 18 |

Repeated from above, the 5 best binders with a signal in all replicates:

CDR-L1,CDR-L2,CDR-L3,group,"mean, log10 nM",replicates with signal,signal with controls
KLSNSFLYESRQKNSVA,EASQREM,QQYHRLPLS,GP_Gibbs,-0.27,6 of 6,1 of 18
KVSPSWLYESRNKNSVA,NASQRES,QQYHRLPLS,GP_Gen,-0.23,6 of 6,2 of 18
KLSQSVLYESRNKNSVA,QASTPES,QQYHRLPLS,Ctrl,-0.18,6 of 6,2 of 18
IVSQLMLWGLHAKNSIA,EAVTRYN,QQYDRLPLF,En_Gen,-0.17,6 of 6,0 of 18
KLSQSVLYESGTKNSVA,NASTRES,QQYHRLPLS,GP_HC,0.03,6 of 6,2 of 18